Earlier results on 1 molecule are cited in patent US20140336073A1, “METHOD OF DETERMINATION OF CANCER CELL DRUG SENSITIVITY TOWARDS AURORA KINASE INHIBITORS” (PALACKY UNIVERSITY, OLOMOUC, priority 2011, published 2014).

Amino acid sequences for entries named in this document (tags omitted).
UniProt P10415, whole entry: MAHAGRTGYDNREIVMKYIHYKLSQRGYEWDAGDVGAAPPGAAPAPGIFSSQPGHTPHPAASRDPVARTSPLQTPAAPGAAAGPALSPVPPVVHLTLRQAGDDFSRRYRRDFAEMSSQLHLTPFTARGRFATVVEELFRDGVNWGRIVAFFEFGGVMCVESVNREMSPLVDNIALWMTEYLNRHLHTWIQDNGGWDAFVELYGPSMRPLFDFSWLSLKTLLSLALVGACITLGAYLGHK

In general, Ki refers to the dissociation constant of the complex between target and ligand, obtained from inhibition or displacement.

The target in the data set is Bcl-2 (Homo sapiens, UniProt P10415). The settings on record: cited from earlier work.

Structures are written as SMILES. A value given as a limit tells only on which side of the number the result lay.

Consider `CC1(C)CCC(c2ccc(Cl)cc2)=C(CN2CCN(c3ccc(C(=O)NS(=O)(=O)c4ccc(N[C@H](CCN5CCOCC5)CSc5ccccc5)c(S(=O)(=O)C(F)(F)F)c4)cc3)CC2)C1` [ABT-263, (R)4-(4-((4′-chloro-4,4-dimethyl-3,4,5,6-tetrahydro[1,1′-biphenyl]-2-yl)methyl)piperazin-1-yl)-N-((4-((4-morpholino-1-(phenylthio)butan-2-yl)amino)-3-((trifluoromethyl)sulfonyl)phenyl)sulfonyl)benzamide], for which the inhibition constant (Ki) was less than 1 nM.
